The target in experiment [1] is Tumorous imaginal disc 1 (Tid1), human (human (endogenous in Jurkat and Jcam)). Briefly: proximity ligation; in situ PLA (DuoLink) on fixed, permeabilised Jcam cells (Lck-deficient) with primary antibodies to CRIF1 and Tid1; spots counted per cell.
The target is the same in experiment [2]. Briefly: proximity ligation; in situ PLA (DuoLink) on fixed, permeabilised Jurkat cells (Lck-expressing) with primary antibodies to CRIF1 and Tid1; spots counted per cell.

For “CR6-interacting factor 1 (CRIF1), human (from UniProt Q8TAE8 1-222) (natural protein)”, the PLA spots (CRIF1-Tid1 complexes) per cell in experiment [1] amounted to 9.2 per cell; in experiment [2], 5.3 per cell.
